The record followed here is ChEMBL document CHEMBL5055640, “Discovery of Novel Acetamide-Based Heme Oxygenase-1 Inhibitors with Potent In Vitro Antiproliferative Activity” (J Med Chem, 2021).

The species named for this test is Rattus norvegicus. In words: Selectivity index, ratio of IC50 for inhibition of Sprague-Dawley rat brain microsome HO-2 to IC50 for inhibition of Sprague-Dawley rat spleen microsome HO-1.

In the case of `Nc1ccc(SC[C@@H]2CO[C@](CCc3ccc(Cl)cc3)(Cn3ccnc3)O2)cc1`, the Selectivity Index is 4.6.
